## Apparent affinities of Ab-14 variants for a coronavirus HR2 peptide

Binding partner: SARS-CoV-2 spike HR2 peptide, sequence PDVDLGDISGINAS.

The variants keep the heavy chain, the linker and the frameworks of Ab-14 (scFv order VH, three GGGGS repeats, VL).
VH: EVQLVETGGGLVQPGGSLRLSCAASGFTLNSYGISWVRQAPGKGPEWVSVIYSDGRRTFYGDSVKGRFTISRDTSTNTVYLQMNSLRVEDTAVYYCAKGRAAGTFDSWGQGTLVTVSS
VL: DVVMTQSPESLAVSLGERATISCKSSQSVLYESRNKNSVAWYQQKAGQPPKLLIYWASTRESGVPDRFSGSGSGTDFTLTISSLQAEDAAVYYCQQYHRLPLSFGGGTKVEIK

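The parent was found by panning a naive human phage display library on the peptide. In library AAYL50, one, two or three CDR residues were substituted; doubles and triples were drawn at random. AlphaSeq pools MATa yeast showing the antibodies with MATalpha yeast showing the peptide. Pairs that bind mate more often; barcode pairs of the diploids are counted by sequencing. Each replicate has its own calibration line, from reference interactions of the BCL2 family. Each pool was mated in three replicate cultures.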

Variants are written as CDR1, CDR2 and CDR3 of the light chain (limits as in the source). Parent: KSSQSVLYESRNKNSVA, WASTRES, QQYHRLPLS. All variants listed here change S58 of the VL, counted from its first residue. Values are apparent Kd, the geometric mean of the replicates that gave a signal; lower means stronger binding. An entry "nd" has no value in the source: the pair was not observed among the diploids in any replicate. This suggests poor binding but is not conclusive.

- KSSQSTLYESRNKNSVK, WALTRES, QQYHRLPLS = nd (0 of 3 replicates; controls 1 of 9)
- KSSQSVLYESRNKNSVA, WAATYES, QTYHRLPLS = 610 µM (2 of 3 replicates; controls 4 of 9)
- KSSQRVLYESRNKNSVA, WATTRES, QEYHRLPLS = 11 µM (2 of 3 replicates; controls 3 of 9)
- KSSQSVLYESRNKNSVA, RACTRES, QVYHRLPLS = 7.0 µM (2 of 3 replicates; controls 0 of 9)
- KSSQSVLYESRNKNSVA, PAKTRYS, QQYHRLPLS = nd (0 of 3 replicates; controls 0 of 9)
- KSSQSVLYESRNKNSVA, WANTRES, QQYHNLPLS = 31 nM (3 of 3 replicates; controls 0 of 9)
- KSSQSVLYESRNKNSVA, WAMCRES, QWYHRLPLS = nd (0 of 3 replicates; controls 0 of 9)
- KSSQSVLYESRNKKSVA, WAITRES, QQYHRLPYS = nd (0 of 3 replicates; controls 1 of 9)
- KSSQSVLYESRNKNSVA, WAPTRES, QQYHRLPLS = nd (0 of 3 replicates; controls 1 of 9)
- KSSQSVLYESRNKNSVA, WAWFRES, QQYHRLILS = 19 µM (2 of 3 replicates; controls 3 of 9)
- KSSQSVLYESRNKNSVA, WAHPRES, QQYHRGPLS = 30 µM (3 of 3 replicates; controls 2 of 9)
- KSSQSVLYESRNKNSVA, WAQTREF, WQYHRLPLS = nd (0 of 3 replicates; controls 0 of 9)
- KSSQSWLYHSRNKNSVA, WAMTRES, QQYHRLPLS = 310 µM (1 of 3 replicates; controls 1 of 9)
- KSSQSVLYESRNKNSVA, WAYTRES, QQYHRLDLS = nd (0 of 3 replicates; controls 1 of 9)
- WSSQSVLYESRNKNSVA, WAATRTS, QQYHRLPLS = nd (0 of 3 replicates; controls 0 of 9)
- KSSQSVLVESRNKNSVA, WAHTRES, QQYHRLPLS = 12 nM (3 of 3 replicates; controls 3 of 9)
- KSSQSVLYESWNKNSVA, WVCTRES, QQYHRLPLS = 38 µM (1 of 3 replicates; controls 3 of 9)
- KSSQSVLVESRNKNSVA, WAMTRES, QQYHRLPLS = 42 nM (3 of 3 replicates; controls 0 of 9)
- KSSQSVLYESRNKNSVA, WAPTRES, PQYHRLPLS = nd (0 of 3 replicates; controls 0 of 9)
- LSSQSVLYESYNKNSVA, WATTRES, QQYHRLPLS = 23 nM (3 of 3 replicates; controls 0 of 9)
- KSSQSVLYESRNKNSVA, WATTRES, QHYHRLGLS = 96 nM (3 of 3 replicates; controls 3 of 9)
- KSSQSVLYEKRNKNSVA, WAFTRES, QQYHVLPLS = nd (0 of 3 replicates; controls 0 of 9)
- KSSPSVLYESRNKNSVA, WADTRLS, QQYHRLPLS = 3.2 nM (3 of 3 replicates; controls 3 of 9)
- KSSQSVLYEGRNKNSVA, WAETRES, NQYHRLPLS = 17 µM (1 of 3 replicates; controls 3 of 9)
- KSSQSVLYESRNKNSVA, WAVTRET, QQYHRLYLS = 23 nM (3 of 3 replicates; controls 0 of 9)
- KSSWWVLYESRNKNSVA, WAFTRES, QQYHRLPLS = nd (0 of 3 replicates; controls 0 of 9)
- KSSQSVLYESRNYNSVK, WAGTRES, QQYHRLPLS = 81 µM (2 of 3 replicates; controls 1 of 9)
- KSSQSVIYESRNKNSVA, WACTRES, QQYHRLPLS = nd (0 of 3 replicates; controls 0 of 9)
- KSAQSVLYESRNKNSVA, WSNTRES, QQYHRLPLS = 180 nM (3 of 3 replicates; controls 8 of 9)
- KSSQSVLYESRAKNSVA, WAETRES, QQYHRLPYS = 200 nM (3 of 3 replicates; controls 0 of 9)
- KSSQSVLYESRNKNSVA, WAWTRES, QQIHRGPLS = nd (0 of 3 replicates; controls 3 of 9)
- KSSQSVLYESRNKNSVA, WALTREI, QQYHRLPLS = 390 nM (3 of 3 replicates; controls 0 of 9)
- KSSQMVLYESRNKNSLA, WAATRES, QQYHRLPLS = 1.2 µM (3 of 3 replicates; controls 1 of 9)
- KSSQSVLYESRNKNSTA, WAETRPS, QQYHRLPLS = 31 µM (2 of 3 replicates; controls 4 of 9)
- KDSQSVLYESRNENSVA, WATTRES, QQYHRLPLS = 15 nM (3 of 3 replicates; controls 2 of 9)
- KSSQSVLYEERNKNSVA, WAITRES, QQYHRLPLS = 540 µM (2 of 3 replicates; controls 6 of 9)
- KSSQTVLYESRNKNSVA, WAGTRES, QQYHRLPGS = 700 nM (3 of 3 replicates; controls 5 of 9)
- KFSQSVLYESRNKNSVA, WAVTRES, QQYHRPPLS = 14 nM (3 of 3 replicates; controls 1 of 9)
- KSSQQVLYESRNKNSVA, RAITRES, QQYHRLPLS = 9.9 nM (3 of 3 replicates; controls 1 of 9)
- KSSQSVLYESRNANSVA, WAPTRES, QQWHRLPLS = 5.8 µM (1 of 3 replicates; controls 0 of 9)
- KSSQSVLYASRNDNSVA, WAFTRES, QQYHRLPLS = 380 nM (1 of 3 replicates; controls 0 of 9)
- KSSQSVLYESRNPNSVA, WAWTRCS, QQYHRLPLS = 670 nM (3 of 3 replicates; controls 1 of 9)
- KSMQSVLYESANKNSVA, WAWTRES, QQYHRLPLS = 140 nM (1 of 3 replicates; controls 1 of 9)
- KSSQSVLYESRNKESVA, WAWDRES, QQYHRLPLS = 30 µM (1 of 3 replicates; controls 6 of 9)
- KSSQSVLYESRNKNSVA, WRATRES, QQHHRLPLS = nd (0 of 3 replicates; controls 2 of 9)
- KSSQSVAYESRNKNSVA, WAVTRES, QQYHRIPLS = 52 nM (3 of 3 replicates; controls 1 of 9)
- KSSQSVLYESRNKNSMA, WAPTRES, QLYHRLPLS = nd (0 of 3 replicates; controls 3 of 9)
- KSSQSVLYESRNKNSVP, WAADRES, QQYHRLPLS = nd (0 of 3 replicates; controls 0 of 9)
- KSSQSVLYESRNKNSVA, WALTREI, QQYIRLPLS = 1.5 µM (1 of 3 replicates; controls 0 of 9)

Excerpt, the final 3 entries:

CDR-L1	CDR-L2	CDR-L3	Kd (apparent)	seen in	control signals
KSSQSVLYESRNKNSMA	WAPTRES	QLYHRLPLS	nd	0/3	3/9
KSSQSVLYESRNKNSVP	WAADRES	QQYHRLPLS	nd	0/3	0/9
KSSQSVLYESRNKNSVA	WALTREI	QQYIRLPLS	1.5 µM	1/3	0/9

Parent in this assay: reference entry 4.4 nM, copy in this library 48 nM. As a blank, each scFv also met three strains without target: over library AAYL50, 18% of these pairings were detected, typically at 15 µM and seldom below 970 nM. Also given: how often the same scFv was detected with the empty control strains.

Reference: Engelhart et al. 2022, doi:10.1038/s41597-022-01779-4. File: FLAb, binding data.